System: miR124
Assay: Effect of the compound on miR124 upregulation in PBMCs (qPCR, U6 as internal reference)
Type: cell-based, human
Details: miR-124 expression, 5 µM, 6 days, batches normalized

Compound	Average fold change compared to DMSO treatment, Average value
FC(F)(F)Oc1ccc(Nc2ncc3c(N4CCOCC4)cc(Cl)cc3n2)cc1 [Compound 45]	8.29
CN(C)CCN(C)c1cc(Cl)cc2nc(Nc3ccc(OC(F)(F)F)cc3)ncc12 [Compound 44]	4.89
